{
  "source": "patent US4933157A",
  "about": "“Radioiodinated arylaliphatic ether analogues of cholesterol” (The University of Michigan, priority 1988, dated 1990)",
  "key": {"[1]": {"assay": "Polyacrylamide gel electrophoresis of rat plasma (plasma level studies)", "assay_type": "in vivo, female Sprague Dawley rats", "details": "24 hours"}, "[2]": {"details": "guinea pig plasma, IV, 30 min", "protocol": "Female Sprague Dawley rats were injected with a radio-iodinated arylaliphatic cholesteryl ether analogue (^125 I) solubilized in a suitable transport agent, such as 2% Tween 20-saline. After a predetermined time period, blood samples were drawn from the rats. The plasma was separated from the red blood cells and mixed with a suitable dye (Sudan Black or Sudan Blue). The plasma samples were then subjected to polyacrylamide gel electrophoresis to separate the various fractions. The radioactivity of the various fractions were measured with a gamma counter. […] The data is expressed as a percent of total radioactivity in the gel.\nGuinea pigs have a greater concentration of low density lipoproteins in their blood plasma than rats."}},
  "note": "Where two headings read alike, the source gives them in different places.",
  "data": [
    {"smiles": "CC(C)CCC[C@@H](C)[C@H]1CC[C@H]2[C@@H]3CC=C4C[C@@H](OCc5cccc([125I])c5)CC[C@]4(C)[C@H]3CC[C@]12C", "note": "[m-Iodobenzyl, m-iodobenzyl cholesteryl ether]", "values": [
      {"measurement": "Gel fraction: LDL Band", "setting": "[1]", "value": "31.2 ± 4.0 % OF TOTAL RADIOACTIVITY IN GEL"},
      {"measurement": "Gel fraction: LDL Band", "setting": "[2]", "value": "32.5 ± 4.2 % OF TOTAL RADIOACTIVITY IN GEL"}
    ]}
  ]
}
